The nature of data set [1]: Intestinal absorption in vitro by the everted rat gut sac model. It is filed as in vitro ADME. To be noted: for K a / P (%) percentage of absorption / P app: medium concentration (SA5 0.050, SA6 0.086, DISS 0.198 mg/ml).

With `COC(=O)c1ccccc1-c1c2ccc(=N)cc-2oc2cc(N)ccc12` [Rho123, Rhodamine 123, reference compound], the “increase of Rho123 absorption by combination with TS versus Rho123 alone” value in the data set on P-glycoprotein (P-gp) (TS 1.58 mg/ml, at 180 min, P < 0.01) was “about 6.35 fold”.

Turning to `COc1cc(/C=C/C(=O)OC[C@H]2O[C@H](O[C@]3(CO)O[C@H](CO)[C@@H](O)[C@@H]3OC(=O)/C=C/c3cc(OC)c(O)c(OC)c3)[C@H](O)[C@@H](O)[C@@H]2O)cc(OC)c1O` [DISS, 3,6′-disinapoyl sucrose], the “cumulative amount per intestinal area, coincubated with TS versus monomers alone” value in data set [1] (TS 1.58 mg/ml, SA5 0.050, SA6 0.086, DISS 0.198 mg/ml, at 180 min, P < 0.01) came out at 2.18 times. The “change of absorption in gut sacs after treatment with PT” value in data set [1] (coincubated with PT 0.012 mg/ml, SA5 0.050, SA6 0.086, DISS 0.198 mg/ml, 180 min) is listed as “no significant increase or decrease”. In data set [1] (in PRE, 180 min, n = 5), the K a is recorded as 0.075 ± 0.0013 ^∗∗ μg·cm^−2·min^−1, the “P (%) percentage of absorption” value turned out to be 2.71 ± 0.12% and the P app is recorded as 0.63 ± 0.011 ×10^−5cm/s. In data set [1] (monomer, n = 5), the K a is reported as 0.032 ± 0.0015∗∗ μg·cm^−2·min^−1, the “P (%) percentage of absorption” value is 1.15 ± 0.04% and the P app is recorded as 0.27 ± 0.013 ×10^−5cm/min. Also, in data set [1] (sodium caprate 1%, SA5 0.050, SA6 0.086, DISS 0.198 mg/ml, at 180 min, P < 0.01), the “increase of cumulative absorption amount per area by combination with sodium caprate (SC)” value is reported as approximately 2.00 fold. Besides, in data set [1] (sodium caprate 1%, SA6 0.086, DISS 0.198 mg/ml, n = 5), the “absorption rate (Ka) with sodium caprate” value amounted to 0.069 ± 0.0031 μg·cm^2·min. The P-gp substrate status result in the data set on P-glycoprotein (P-gp) (concluded from verapamil coincubation) is “not a substrate for P-gp”. The “influence of verapamil on transport” value in the data set with P-glycoprotein (P-gp) (verapamil 0.1 mmol/L, DISS 0.198 mg/ml) is recorded as “no significant influence”.

Source of the values: article PMC6633864, “Intestinal Absorption Profile of Three Polygala Oligosaccharide Esters in Polygalae Radix and the Effects of Other Components in Polygalae Radix on Their Absorption” (Evidence-based Complementary and Alternative Medicine : eCAM, 2019).
